Measured values from patent US20110034399A1, “Liquid and Freeze Dried Formulations” (IPSEN PHARMA S.A.S., priority 2008, published 2011).

Assay: Formulation stability of lyophilisate form (HPLC content and purity, pH) on storage
Type: physicochemical
Protocol: Stabilities measurements were performed by means of High Performance Liquid Chromatographic (HPLC) method. The HPLC system a HPLC Waters Alliance 2695 completed by detection system 2487 Dual λ Absorbance Detector, the column used was a C18, 250×4.6 mm. All details concerning instrumental conditions are gathered in table 6. Elution conditions are gathered in table 7. Two pharmaceutical forms were studied in parallel for stability assays over six months at +5° C. and +25° C./60% RH (relative humidity) and +40° C./75% RH. Measurements were carried out in parallel with (in either wfi, or 5% dextrose as solvent) and a lyophilisate (drug substance on its own) or as second variant of formulations with an additional bulking agents such as mannitol, glycine and trehalose) in WFI. [table] C (% initial) represents the content expressed in percentage at the moment T with regard to the content at the moment Tzero. P (% a/a) represents the purity of the solution expressed by areas (a) ratio in percentage: Table 6 discloses the method and apparatus for measurement of stabilities of the active substance in the formulation disclosed in the present invention. [table] In table 7 are gathered the elution program, the ratio of each eluant (mobile phase) used for measurement of formulation stabilities. [table] […] 760 was calculated by means of the following relation: […]

`CCCN1CC(CSCC(=O)N[C@H](CCCCNC(=O)CSC[C@@H]2C[C@@H]3c4cccc5[nH]cc(c45)C[C@H]3N(CCC)C2)C(=O)N[C@H]2CSSC[C@@H](C(=O)N[C@H](C(N)=O)[C@@H](C)O)NC(=O)[C@H](CC)NC(=O)[C@H](CCCCN)NC(=O)[C@@H](Cc3c[nH]c4ccccc34)NC(=O)[C@H](Cc3ccc(O)cc3)NC2=O)C[C@@H]2c3cccc4[nH]cc(c34)C[C@H]21` (stereo partly drawn) [BIM23A760, Dop2-DLys(Dop2)-c(Cys-Tyr-DTrp-Lys-Abu-Cys)-Thr-NH2] gave a pH (+25° C./60% RH, T3 Months) of 6.12 and a pH (+40° C./75% RH, T1 Month) of 6.87.
